Experimental findings from patent US7803801B2, “Aminopyridine compounds having Syk inhibitory activity” (Japan Tobacco, Inc., priority 2005, dated 2010) are described below.

For experiment [1], the system named is cultured human mast cells. Description: Degranulation inhibition test using cultured human mast cells (IgE cross-linking, β-Hexosaminidase release). The format is cell-based. Particulars: read-out: human degranulation ave. IC50, anti-hIgE stimulation, β-Hexosaminidase index, average. On the procedure:
Degranulation Inhibition Test Using Cultured Human Mast Cells
(1) Separation of Hematopoietic Stem Cells;
After 10 to 60 mL of umbilical cord blood collected with heparin was diluted with an equivalent amount of buffer (0.5% BSA, 2 mM EDTA/PBS-), it was superposed on Ficoll-Paque (Amersham Pharmacia Biotech) (Ficoll/Blood (1:2)) and mononuclear leukocyte fraction was collected by centrifuging it at 400 G (1350 rpm) 4° C. for 30 minutes. After centrifugal washing (1500 rpm, 5 min, 4° C.×3) with buffer, the number of cells was counted and 0.1 mL of CD34 Progenitor Cell Isolation Kit (Miltenyi Biotec), Reagent A1 (Fc blocking) was added for 1×10^8 cells. After agitation, 0.1 mL of Reagent A2 (CD34 antibody-hapten) was added (final volume 0.5 mL/1×10^8 cells) and incubated at 9° C. for further 15 minutes after agitation. […]
10 μL of a compound 10-fold diluted with IMDM after dissolved in DMSO (DMSO final concentration 0.1%) was added and reacted at 37° C. for 10 minutes. […] After centrifugation, 50 μL/well of the supernatant was collected and stored at −40° C. untill the quantity of degranulation was measured. The measurement of quantity of degranulation was performed using enzymatic activity of β-Hexosaminidase contained in the granulates as an index. […]

Experiment [2] has as its target GST-Syk Full Protein (human) (Homo sapiens, UniProt P43405). Nature of the experiment: Syk kinase inhibition test (HTRF method). It is filed as biochemical. Particulars: read-out: sykHTRF ave IC50, 100 μM ATP, 30 min room temperature, average. On the procedure: Syk Kinase Inhibition Test (HTRF Method)
After the compounds were serially diluted with dimethylsulfoxide (DMSO), 10 μL of those 10-fold diluted with kinase buffer (20 mM HEPES pH 7.0, 10 mM MgCl2, 50 mM NaCl, 1 mM 2-ME, 0.05% BSA) was added to opti-plate HTRF-96 (Packard) (final DMSO concentration: 2%). […] After allowed to stand still at room temperature for 1 hour, inhibitory effect of a compound against Syk kinase enzymatic activity was evaluated by measuring 665/620 fluorescence ratio to excitation light at 337 nm by ARVO (Wallac).
A general note: TR-FRET usually uses a lanthanide donor and a delayed reading to cut background.

The IC50 is the concentration that inhibits the measured activity by half. With `Cc1ccnc(Nc2cccc(-c3cnc([C@H]4CC[C@H](C(=O)N5CCC(=O)CC5)CC4)s3)n2)c1`, the IC50 is over 1000 nM in experiment [1] and 100 to 1000 nM in experiment [2].
